Laboratory results from paper PMC7699480 (Cancers, 2020).

Target: the molecule itself
Assay: electrophoresis on a bioanalyzer; purified Cys-∆N-SpyCatcher under non-reducing conditions; dimer through the added cysteine; reducing conditions gave a major 15.2 kDa (87%) peak

B1: Cys-∆N-SpyCatcher (designed binder)
chain: CDSATHIKFSKRDEDGKELAGATMELRDSSGKTISTWISDGQVKDFYLYPGKYTFVETAAPDGYEVATAITFTVNEQGQVTVNGKATKGDAHI
stoichiometry N: 2
